Assay results from ChEMBL document CHEMBL1649552 (2009).

Columns and labels:
Type in all cases: functional
Klebsiella pneumoniae = test: Antibacterial activity against Klebsiella pneumoniae by CLSI M100-S17 method
Acinetobacter baumannii = test: Antibacterial activity against Acinetobacter baumannii by CLSI M100-S17 method
[1] = test system: Staphylococcus epidermidis; test: Antibacterial activity against methicillin-resistant Staphylococcus epidermidis by CLSI M100-S17 method
Pseudomonas aeruginosa = test: Antibacterial activity against Pseudomonas aeruginosa by CLSI M100-S17 method
Proteus mirabilis = test: Antibacterial activity against Proteus mirabilis by CLSI M100-S17 method
[2] = test system: Staphylococcus epidermidis; test: Antibacterial activity against methicillin-susceptible Staphylococcus epidermidis by CLSI M100-S17 method
Enterobacter cloacae = test: Antibacterial activity against Enterobacter cloacae by CLSI M100-S17 method
Staphylococcus aureus [3] = test: Antibacterial activity against methicillin-susceptible Staphylococcus aureus by CLSI M100-S17 method
Serratia marcescens = test: Antibacterial activity against Serratia marcescens by CLSI M100-S17 method
Moraxella catarrhalis = test: Antibacterial activity against Moraxella catarrhalis by CLSI M100-S17 method
Escherichia coli = test: Antibacterial activity against Escherichia coli by CLSI M100-S17 method
Staphylococcus aureus [4] = test: Antibacterial activity against methicillin-resistant Staphylococcus aureus by CLSI M100-S17 method
[5] = test system: Stenotrophomonas maltophilia; test: Antibacterial activity against Stenotrophomonas maltophilia by CLSI M100-S17 method
Klebsiella oxytoca = test: Antibacterial activity against Klebsiella oxytoca by CLSI M100-S17 method

GENTAMICIN
0.5 µg/mL: MIC (Klebsiella pneumoniae) | MIC (Acinetobacter baumannii) | MIC [1] | MIC (Pseudomonas aeruginosa) | MIC (Proteus mirabilis) | MIC (Enterobacter cloacae) | MIC (Serratia marcescens) | MIC (Escherichia coli) | MIC (Staphylococcus aureus [4]) | MIC [5] | MIC (Klebsiella oxytoca)
< 0.5 µg/mL: MIC50 (Klebsiella pneumoniae) | MIC90 (Klebsiella pneumoniae) | MIC50 (Acinetobacter baumannii) | MIC50 [2] | MIC50 (Enterobacter cloacae) | MIC50 (Staphylococcus aureus [3]) | MIC50 (Serratia marcescens) | MIC (Moraxella catarrhalis) | MIC50 (Moraxella catarrhalis) | MIC90 (Moraxella catarrhalis) | MIC50 (Escherichia coli) | MIC50 (Staphylococcus aureus [4]) | MIC50 (Klebsiella oxytoca) | MIC90 (Klebsiella oxytoca)
